From article PMC7802075, “Antileishmanial Chemotherapy through Clemastine Fumarate Mediated Inhibition of the Leishmania Inositol Phosphorylceramide Synthase” (ACS Infectious Diseases, 2020)

Target: T1, LmjIPCS (inositol phosphorylceramide synthase from L. major) (Leishmania major, UniProt E9AFX2)
T1 sequence (E9AFX2 1-338): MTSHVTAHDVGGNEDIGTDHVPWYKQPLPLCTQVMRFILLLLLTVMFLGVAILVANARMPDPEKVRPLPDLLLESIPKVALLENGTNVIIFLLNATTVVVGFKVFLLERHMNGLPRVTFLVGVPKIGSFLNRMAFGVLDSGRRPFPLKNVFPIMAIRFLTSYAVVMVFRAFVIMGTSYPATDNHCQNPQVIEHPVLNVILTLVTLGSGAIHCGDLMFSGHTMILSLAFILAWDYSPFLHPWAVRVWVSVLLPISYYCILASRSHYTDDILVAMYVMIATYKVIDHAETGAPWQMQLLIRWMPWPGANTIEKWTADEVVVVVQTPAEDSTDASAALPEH

## CC1=C(/C=C/C(C)=C/C=C/C(C)=C/C(=O)O)C(C)(C)CCC1 [TRETINON]
  20mM inhibition LmjIPCS: 30%
